Data on 5 substances can be found in patent US9499599B2, “Composition and methods for stimulating gastrointestinal motility” (Ipsen Pharma S.A.S., priority 2005, dated 2016).

Amino acid sequences for entries named in this document (tags omitted).
UniProt Q92847, whole entry: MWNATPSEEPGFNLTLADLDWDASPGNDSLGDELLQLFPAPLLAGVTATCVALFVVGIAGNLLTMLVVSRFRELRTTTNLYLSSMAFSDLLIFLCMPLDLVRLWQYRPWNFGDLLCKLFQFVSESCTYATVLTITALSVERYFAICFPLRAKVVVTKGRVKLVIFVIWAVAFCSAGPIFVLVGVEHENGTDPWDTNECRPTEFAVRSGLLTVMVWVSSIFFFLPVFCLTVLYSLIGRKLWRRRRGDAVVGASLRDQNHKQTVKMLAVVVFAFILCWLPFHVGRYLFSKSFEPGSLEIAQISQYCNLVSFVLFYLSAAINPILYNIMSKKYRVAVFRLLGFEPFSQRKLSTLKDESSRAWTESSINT

Where two headings read alike, the source gives them in different places.

For the test, the target named is T1, human recombinant GHS receptor (Homo sapiens, UniProt Q92847).
T1 construct: The full length human GHS-R was subcloned into the mammalian expression vector pcDNA 3.1; expressed in transfected cells; membrane homogenates used
Put plainly: GHS-receptor binding assay, (125I)ghrelin displacement.

Where [1] appears, read: 0.05 nM (125I)ghrelin, membranes of CHO-K1 cells expressing human recombinant GHS receptor, 60 min at 4° C.; read-out: Receptor Binding Ki.

Take “H-Inp-D-2-Nal-D-Trp-Taz-NH2 [Example #90]”: the Ki under setting [1] stood at 6.17 nM.
As to “Aib^2, Act^6)hGhrelin(1-28)-NH2 [Example #114]”, under “read-out: Receptor Binding Ki; 0.05 nM (125I)ghrelin, membranes of CHO-K1 cells expressing human recombinant GHS receptor, 60 min at 4° C.”, the Ki is 155 nM.
Regarding “H-Inp-D-1-Nal-D-Trp-Taz-Apc-NH2 [Example #60]”, the Ki under setting [1] was found to be 1.19 nM.
The same measure, in the same setting: the value for “H-Inp-D-1-Nal-D-Trp-Taz-Lys-NH2 [Example #57]” was 1.11 nM.
On the same count and under the same terms, the value for (Act^2)hGhrelin(1-28)-NH2 [Example #94] was 12.7 nM.
